From patent publication US20230174484A1, “ANTAGONISTS OF GPR39 PROTEIN” (Oregon Health & Science University, priority 2020, published 2023)

Protein sequences, listed by entry. Tags and fused reporters are not part of them.
UniProt O43194, whole entry: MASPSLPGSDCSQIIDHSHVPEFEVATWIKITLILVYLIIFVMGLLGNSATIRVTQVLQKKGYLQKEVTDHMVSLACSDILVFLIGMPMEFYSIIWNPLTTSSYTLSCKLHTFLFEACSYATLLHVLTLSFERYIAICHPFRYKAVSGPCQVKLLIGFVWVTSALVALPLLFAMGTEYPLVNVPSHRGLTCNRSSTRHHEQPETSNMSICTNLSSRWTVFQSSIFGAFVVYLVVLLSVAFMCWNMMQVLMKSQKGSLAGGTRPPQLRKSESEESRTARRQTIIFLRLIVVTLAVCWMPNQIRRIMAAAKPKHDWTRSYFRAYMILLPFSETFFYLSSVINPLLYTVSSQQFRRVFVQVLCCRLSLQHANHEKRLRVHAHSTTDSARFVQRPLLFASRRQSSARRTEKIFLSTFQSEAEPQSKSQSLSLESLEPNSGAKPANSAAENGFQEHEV

Biological target: human GPR39 receptor (Homo sapiens, UniProt O43194)
Test: Measurement of intracellular calcium response in PC3 cells (FLIPR), antagonism of the C3 agonist response
Type: cell-based
Details: functional pKi (modified Cheng-Prusoff), inhibition of the C3 (TC-G 1008) response at EC90, 30 μM ZnCl2
Protocol: Human prostate adenocarcinoma (PC3) cells endogenously expressing human GPR39 receptor were seeded into black walls clear-base 384-well plates at a density of 7,500 cells per well in DM EM (Low Glucose) supplemented with 10% heat-inactivated foetal bovine serum and 1% of Pen/Strep and grown overnight at 37° C., 5% CO2. After washing with assay buffer (20 mM HEPES, 137 mM NaCI, 5.4 mM KCI, 10 mM glucose, 0.8 mM MgSO4, 1.3 mM CaCl2, 0.3 mM Na2HPO4, 0.4 mM KH2PO4 4.2 mM NaHCO3, pH 7.4), cells were incubated with Calcium-6 probe (Molecular Devices) at 37° C. for 2h and then equilibrated at RT for 30 minutes on metal block. The fluorescence was measured in real time by Fluorometric Imaging Plate Reader (FLIPR TETRA, Molecular Devices) (excitation wavelength at 470-495 nm, emission wavelength at 515-575 nm).
Compounds of invention were serially diluted in neat DMSO at 1000 fold concentrations and plated into 384-well plates and then 200-fold diluted in assay buffer containing 150 uM ZnCl2 (30 μM final concentration) and […]. […]
Fluorescence was monitored throughout the run assay. The peak of Ca2+stimulation (baseline subtracted) was expressed as percentage of the maximal inhibition of the EC90 C3 response and was plotted versus the concentration of test compound. […]

In the case of Cn1c(Sc2cccnc2)nnc1-c1ccc(NC(=O)C2CC2)cc1N1CCCC1, the fpKi activity is reported as “+ (An fpKi ranging from 5.2 to 5.9 is reported as “+”)”.
